Results as given in publication PMC3961306, “Comparison of the Cancer Gene Targeting and Biochemical Selectivities of All Targeted Kinase Inhibitors Approved for Clinical Use” (PLoS ONE, 2014).

Amino acid sequences for entries named in this document (tags omitted). Residues count along the entry.
UniProt P10721, 26-976 V560G: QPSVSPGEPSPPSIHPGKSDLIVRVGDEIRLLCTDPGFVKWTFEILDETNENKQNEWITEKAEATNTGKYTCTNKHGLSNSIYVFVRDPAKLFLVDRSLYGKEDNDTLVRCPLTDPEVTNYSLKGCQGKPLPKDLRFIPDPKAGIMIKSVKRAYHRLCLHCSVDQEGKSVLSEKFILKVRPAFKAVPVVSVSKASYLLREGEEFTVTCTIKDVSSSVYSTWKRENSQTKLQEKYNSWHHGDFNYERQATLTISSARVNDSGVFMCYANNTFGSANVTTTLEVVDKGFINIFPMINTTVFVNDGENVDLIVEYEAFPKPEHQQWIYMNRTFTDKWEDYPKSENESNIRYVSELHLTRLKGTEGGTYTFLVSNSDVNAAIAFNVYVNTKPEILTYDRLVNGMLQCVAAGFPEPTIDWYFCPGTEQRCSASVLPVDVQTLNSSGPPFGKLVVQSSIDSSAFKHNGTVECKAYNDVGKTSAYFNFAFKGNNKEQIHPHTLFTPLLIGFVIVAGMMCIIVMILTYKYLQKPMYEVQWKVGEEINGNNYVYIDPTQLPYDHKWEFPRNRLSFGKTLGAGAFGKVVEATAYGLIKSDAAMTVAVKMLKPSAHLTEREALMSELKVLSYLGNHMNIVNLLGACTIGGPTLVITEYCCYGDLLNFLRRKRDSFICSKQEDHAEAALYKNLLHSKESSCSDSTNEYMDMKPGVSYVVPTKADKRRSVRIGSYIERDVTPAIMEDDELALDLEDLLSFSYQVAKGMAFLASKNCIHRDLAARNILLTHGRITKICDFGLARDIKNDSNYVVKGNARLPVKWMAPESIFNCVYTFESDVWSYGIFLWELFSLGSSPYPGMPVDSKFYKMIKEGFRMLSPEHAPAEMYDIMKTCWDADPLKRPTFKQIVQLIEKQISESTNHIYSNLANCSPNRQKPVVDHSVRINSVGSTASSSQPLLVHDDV

Columns and labels:
Assay in all cases: Kinase profiling in a biochemical assay panel (mobility shift assays and ELISA), %-inhibition at 1 μM; selectivity entropy
[1] = target: T1, panel of more than 300 wild-type and mutant kinases (313 kinase panel) (Homo sapiens, UniProt Q8TD19)
T1 sequence (Q8TD19 1-979): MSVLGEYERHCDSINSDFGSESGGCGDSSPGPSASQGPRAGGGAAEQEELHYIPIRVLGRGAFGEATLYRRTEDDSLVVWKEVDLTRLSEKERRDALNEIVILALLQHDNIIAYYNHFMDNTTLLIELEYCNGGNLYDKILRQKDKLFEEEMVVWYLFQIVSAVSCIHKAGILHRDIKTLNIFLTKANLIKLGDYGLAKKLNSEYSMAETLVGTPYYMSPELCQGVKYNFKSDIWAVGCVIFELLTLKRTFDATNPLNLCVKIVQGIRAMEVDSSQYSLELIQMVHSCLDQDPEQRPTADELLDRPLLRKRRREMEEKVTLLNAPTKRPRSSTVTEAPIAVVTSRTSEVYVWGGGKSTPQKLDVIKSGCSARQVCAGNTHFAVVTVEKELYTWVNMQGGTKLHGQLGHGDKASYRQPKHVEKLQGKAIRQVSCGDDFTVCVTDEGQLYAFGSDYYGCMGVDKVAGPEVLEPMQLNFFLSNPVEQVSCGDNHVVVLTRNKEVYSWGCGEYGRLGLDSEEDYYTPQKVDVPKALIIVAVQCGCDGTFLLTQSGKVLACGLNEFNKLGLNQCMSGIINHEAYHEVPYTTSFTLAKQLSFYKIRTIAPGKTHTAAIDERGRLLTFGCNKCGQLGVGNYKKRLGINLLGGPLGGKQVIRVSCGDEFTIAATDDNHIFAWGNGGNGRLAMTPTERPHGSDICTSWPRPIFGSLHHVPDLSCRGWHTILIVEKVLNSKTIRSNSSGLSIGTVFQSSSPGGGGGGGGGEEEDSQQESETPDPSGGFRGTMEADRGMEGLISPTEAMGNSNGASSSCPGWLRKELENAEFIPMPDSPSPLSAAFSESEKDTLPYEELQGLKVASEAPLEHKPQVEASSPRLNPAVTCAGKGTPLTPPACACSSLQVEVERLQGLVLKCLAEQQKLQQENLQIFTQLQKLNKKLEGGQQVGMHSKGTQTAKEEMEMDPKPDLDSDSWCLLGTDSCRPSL

[2] = target: T2, panel of more than 300 wild-type and mutant kinases (313 kinase panel) (Homo sapiens, UniProt P51813)
T2 sequence (P51813 1-675): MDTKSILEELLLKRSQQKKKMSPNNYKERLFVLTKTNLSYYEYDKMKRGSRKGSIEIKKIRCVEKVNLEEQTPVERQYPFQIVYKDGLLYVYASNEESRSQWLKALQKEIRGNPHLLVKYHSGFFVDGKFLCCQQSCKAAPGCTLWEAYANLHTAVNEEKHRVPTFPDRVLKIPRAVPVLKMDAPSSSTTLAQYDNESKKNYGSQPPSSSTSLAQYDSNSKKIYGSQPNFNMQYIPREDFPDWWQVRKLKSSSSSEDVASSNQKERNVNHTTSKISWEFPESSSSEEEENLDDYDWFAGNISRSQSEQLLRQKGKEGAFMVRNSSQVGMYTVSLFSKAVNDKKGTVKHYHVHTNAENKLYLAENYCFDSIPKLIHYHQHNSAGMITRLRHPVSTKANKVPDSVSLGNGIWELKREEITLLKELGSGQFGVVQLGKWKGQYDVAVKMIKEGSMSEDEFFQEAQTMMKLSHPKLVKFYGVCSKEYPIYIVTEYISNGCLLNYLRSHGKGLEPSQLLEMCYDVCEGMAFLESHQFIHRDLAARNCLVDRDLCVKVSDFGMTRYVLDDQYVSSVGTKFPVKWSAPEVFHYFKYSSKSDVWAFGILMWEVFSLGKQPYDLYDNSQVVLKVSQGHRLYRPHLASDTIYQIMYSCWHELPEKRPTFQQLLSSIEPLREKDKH

[3] = target: panel of more than 300 wild-type and mutant kinases (313 kinase panel) (Homo sapiens, UniProt P10721, V560G)
[4] = target: T3, panel of more than 300 wild-type and mutant kinases (313 kinase panel) (Homo sapiens, UniProt Q7KZI7)
T3 sequence (Q7KZI7 1-788): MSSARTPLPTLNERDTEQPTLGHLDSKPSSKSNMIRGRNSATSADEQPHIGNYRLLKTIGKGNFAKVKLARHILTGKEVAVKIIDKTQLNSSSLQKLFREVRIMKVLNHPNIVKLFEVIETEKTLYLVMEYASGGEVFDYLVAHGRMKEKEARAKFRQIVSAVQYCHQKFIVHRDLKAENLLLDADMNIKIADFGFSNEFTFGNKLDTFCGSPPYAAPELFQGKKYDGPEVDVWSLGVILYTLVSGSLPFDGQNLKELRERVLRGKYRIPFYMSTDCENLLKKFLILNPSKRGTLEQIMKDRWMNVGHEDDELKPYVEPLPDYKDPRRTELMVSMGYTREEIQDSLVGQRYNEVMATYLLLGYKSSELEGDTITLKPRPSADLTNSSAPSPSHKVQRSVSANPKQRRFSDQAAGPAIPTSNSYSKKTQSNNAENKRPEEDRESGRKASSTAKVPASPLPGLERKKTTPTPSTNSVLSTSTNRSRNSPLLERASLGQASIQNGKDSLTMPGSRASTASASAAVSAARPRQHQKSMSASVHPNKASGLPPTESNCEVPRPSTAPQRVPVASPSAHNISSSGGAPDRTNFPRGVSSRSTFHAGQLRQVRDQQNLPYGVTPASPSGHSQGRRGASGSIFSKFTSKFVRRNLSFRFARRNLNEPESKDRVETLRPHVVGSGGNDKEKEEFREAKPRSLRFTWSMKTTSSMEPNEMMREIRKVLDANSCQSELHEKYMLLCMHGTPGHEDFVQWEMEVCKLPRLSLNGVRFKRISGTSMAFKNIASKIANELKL

[5] = target: panel of more than 300 wild-type and mutant kinases (313 kinase panel) (Homo sapiens, UniProt Q02750)

| SMILES | %-inhibition of NEK9 ([1]; kinase NEK9, 1 μM) | %-inhibition, BMX ([2]; kinase BMX, 1 μM compound) | %-inhibition of KIT(V560G) ([3]; kinase KIT(V560G), compound at 1 μM) | %-inhibition of MARK2 ([4]; kinase MARK2, compound at 1 μM) | %-inhibition of MAP2K1 ([5]; kinase MAP2K1, compound at 1 μM) | %-inhibition of NEK9 ([1]; 1 µM) | %-inhibition, BMX ([2]; 1 µM) | %-inhibition of KIT(V560G) ([3]; 1 µM) | %-inhibition of MARK2 ([4]; 1 µM) | %-inhibition of MAP2K1 ([5]; 1 µM) |
| --- | --- | --- | --- | --- | --- | --- | --- | --- | --- | --- |
| CNC(=O)c1ccccc1Sc1ccc2c(/C=C/c3ccccn3)n[nH]c2c1 [axitinib] | 33% | 16% | 96% | 78% | 5.28% | – | – | – | – | – |
| COc1cc2ncnc(Nc3ccc(F)c(Cl)c3)c2cc1OCCCN1CCOCC1 [gefitinib] | – | – | – | – | – | 3.17% | 10% | 23% | 16% | 17% |
| C[C@@H]1CCN(C(=O)CC#N)C[C@@H]1N(C)c1ncnc2[nH]ccc12 [tofacitinib] | – | – | – | – | – | -2.83% | 3% | -1.06% | 41% | 3.52% |
